Measured values from patent US6803203B1, “DNA-PK assay” (Brookhaven Science Associates, priority 1993, dated 2004).
Entries after “also recorded” stand apart in the source; their conditions may differ.

Chains of the proteins cited; added tags and fusions are not shown.
UniProt P78527, whole entry: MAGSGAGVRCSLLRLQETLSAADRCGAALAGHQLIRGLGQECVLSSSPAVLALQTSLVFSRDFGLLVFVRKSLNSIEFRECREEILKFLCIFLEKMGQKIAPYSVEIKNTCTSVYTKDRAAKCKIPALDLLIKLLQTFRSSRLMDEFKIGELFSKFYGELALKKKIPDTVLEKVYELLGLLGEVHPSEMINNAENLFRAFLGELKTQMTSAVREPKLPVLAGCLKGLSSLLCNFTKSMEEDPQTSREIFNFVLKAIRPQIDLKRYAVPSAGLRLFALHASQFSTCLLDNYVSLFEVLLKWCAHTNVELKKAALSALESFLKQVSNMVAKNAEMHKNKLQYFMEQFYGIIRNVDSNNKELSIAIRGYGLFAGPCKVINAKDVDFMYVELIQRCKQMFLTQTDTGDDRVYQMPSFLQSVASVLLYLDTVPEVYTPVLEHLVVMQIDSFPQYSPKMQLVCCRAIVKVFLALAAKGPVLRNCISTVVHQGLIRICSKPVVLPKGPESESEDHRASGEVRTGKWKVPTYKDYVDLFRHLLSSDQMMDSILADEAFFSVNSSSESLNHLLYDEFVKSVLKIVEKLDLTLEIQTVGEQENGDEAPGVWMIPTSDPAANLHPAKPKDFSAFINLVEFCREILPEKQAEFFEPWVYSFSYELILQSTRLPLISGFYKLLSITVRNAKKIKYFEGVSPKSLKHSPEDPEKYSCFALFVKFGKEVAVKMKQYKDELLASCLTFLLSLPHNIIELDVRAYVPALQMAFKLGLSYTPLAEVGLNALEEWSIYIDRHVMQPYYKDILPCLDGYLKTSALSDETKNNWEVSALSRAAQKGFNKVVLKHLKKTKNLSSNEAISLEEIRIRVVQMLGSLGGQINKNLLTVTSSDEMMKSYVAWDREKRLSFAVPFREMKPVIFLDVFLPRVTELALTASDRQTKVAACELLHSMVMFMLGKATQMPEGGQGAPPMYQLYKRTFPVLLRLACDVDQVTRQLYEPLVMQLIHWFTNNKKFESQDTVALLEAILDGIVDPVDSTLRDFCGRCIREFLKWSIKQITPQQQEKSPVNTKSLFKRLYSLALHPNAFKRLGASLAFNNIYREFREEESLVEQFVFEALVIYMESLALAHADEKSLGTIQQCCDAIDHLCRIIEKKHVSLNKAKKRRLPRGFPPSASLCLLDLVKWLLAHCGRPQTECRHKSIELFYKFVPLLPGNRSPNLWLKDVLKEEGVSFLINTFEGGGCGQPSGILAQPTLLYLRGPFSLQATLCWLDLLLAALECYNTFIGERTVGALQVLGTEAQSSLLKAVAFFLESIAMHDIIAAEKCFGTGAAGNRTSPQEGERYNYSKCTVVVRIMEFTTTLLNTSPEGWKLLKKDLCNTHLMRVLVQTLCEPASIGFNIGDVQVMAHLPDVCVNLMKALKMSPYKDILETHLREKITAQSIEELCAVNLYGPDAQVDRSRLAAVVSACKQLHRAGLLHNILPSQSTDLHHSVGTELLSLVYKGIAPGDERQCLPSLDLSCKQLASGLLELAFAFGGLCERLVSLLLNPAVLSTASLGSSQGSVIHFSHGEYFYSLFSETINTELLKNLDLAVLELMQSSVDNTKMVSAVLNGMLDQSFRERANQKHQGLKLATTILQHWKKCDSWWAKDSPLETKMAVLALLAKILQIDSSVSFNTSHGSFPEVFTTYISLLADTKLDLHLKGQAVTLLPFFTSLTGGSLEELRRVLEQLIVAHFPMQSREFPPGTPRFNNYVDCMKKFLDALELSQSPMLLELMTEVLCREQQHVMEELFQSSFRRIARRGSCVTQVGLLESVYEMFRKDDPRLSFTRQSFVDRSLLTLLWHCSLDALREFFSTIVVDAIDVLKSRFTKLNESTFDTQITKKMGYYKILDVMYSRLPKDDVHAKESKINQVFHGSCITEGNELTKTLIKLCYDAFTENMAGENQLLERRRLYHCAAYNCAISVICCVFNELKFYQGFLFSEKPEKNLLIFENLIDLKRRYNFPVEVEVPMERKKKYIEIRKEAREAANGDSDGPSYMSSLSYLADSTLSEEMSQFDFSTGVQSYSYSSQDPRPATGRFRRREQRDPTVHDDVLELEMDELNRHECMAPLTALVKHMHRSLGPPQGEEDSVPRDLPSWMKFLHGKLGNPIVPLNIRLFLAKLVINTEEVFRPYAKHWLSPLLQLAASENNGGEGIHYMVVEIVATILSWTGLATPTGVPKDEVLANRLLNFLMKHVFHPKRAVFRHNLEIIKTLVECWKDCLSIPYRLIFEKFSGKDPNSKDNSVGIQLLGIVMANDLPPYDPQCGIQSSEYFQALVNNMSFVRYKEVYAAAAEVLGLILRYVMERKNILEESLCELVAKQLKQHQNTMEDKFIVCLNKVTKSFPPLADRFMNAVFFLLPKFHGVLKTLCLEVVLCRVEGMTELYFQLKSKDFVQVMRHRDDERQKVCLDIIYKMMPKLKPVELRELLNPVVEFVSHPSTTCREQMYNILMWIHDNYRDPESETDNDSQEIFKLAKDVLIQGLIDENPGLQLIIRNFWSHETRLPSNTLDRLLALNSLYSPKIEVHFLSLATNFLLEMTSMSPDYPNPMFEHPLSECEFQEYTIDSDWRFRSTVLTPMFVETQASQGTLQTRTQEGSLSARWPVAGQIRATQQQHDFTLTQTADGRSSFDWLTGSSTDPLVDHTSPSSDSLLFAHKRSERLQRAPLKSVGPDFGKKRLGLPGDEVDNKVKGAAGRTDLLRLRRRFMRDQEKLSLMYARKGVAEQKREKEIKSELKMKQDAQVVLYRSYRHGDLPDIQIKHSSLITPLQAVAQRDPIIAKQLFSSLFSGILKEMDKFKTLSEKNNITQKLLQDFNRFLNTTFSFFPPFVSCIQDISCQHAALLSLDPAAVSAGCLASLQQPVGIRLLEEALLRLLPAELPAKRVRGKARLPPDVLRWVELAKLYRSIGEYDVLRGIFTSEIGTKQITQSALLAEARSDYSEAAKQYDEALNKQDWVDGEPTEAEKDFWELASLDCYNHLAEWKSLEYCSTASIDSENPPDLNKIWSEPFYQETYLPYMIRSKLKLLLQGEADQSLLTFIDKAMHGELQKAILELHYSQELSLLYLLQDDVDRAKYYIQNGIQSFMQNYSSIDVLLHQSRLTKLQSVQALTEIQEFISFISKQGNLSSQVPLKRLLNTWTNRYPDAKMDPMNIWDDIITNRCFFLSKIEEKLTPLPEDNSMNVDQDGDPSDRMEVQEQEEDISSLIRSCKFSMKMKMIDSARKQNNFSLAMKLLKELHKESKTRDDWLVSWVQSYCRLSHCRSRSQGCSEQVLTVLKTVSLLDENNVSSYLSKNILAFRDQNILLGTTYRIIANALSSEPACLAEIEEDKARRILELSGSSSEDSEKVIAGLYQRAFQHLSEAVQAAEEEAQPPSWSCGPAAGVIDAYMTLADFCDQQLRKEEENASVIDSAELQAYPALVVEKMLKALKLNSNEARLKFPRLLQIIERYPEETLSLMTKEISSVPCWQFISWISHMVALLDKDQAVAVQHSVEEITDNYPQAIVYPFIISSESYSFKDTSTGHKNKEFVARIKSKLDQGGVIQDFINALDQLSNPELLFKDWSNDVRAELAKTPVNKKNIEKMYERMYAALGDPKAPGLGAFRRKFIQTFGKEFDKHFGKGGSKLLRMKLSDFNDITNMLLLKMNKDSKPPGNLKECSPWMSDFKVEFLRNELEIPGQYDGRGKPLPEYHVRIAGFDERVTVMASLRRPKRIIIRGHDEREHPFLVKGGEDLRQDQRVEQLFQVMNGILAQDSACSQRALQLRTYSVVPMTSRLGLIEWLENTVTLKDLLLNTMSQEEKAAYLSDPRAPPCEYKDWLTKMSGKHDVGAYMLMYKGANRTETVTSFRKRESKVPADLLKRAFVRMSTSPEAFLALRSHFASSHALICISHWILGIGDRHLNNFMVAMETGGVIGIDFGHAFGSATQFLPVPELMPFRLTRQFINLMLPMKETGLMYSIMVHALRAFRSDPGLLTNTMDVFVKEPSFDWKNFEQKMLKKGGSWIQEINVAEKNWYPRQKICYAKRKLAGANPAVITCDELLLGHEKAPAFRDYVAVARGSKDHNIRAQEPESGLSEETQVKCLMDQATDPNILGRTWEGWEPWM

Columns and labels:
DNA-PK [1] = target: T1, DNA-PK (Homo sapiens, UniProt P78527); assay: Phosphorylation of synthetic peptides by purified DNA-PK (phosphocellulose paper binding method); type: biochemical
T1 construct: DNA-PK was purified from HeLa cells; endogenous in cells; host or cells: HeLa S3 cells; the endogenous enzyme was purified in house by chromatography

DNA-PK [2] = target: T1, DNA-PK; assay: Poorer substrate peptides added to (SEQ ID NO: 8) phosphorylation assays; type: biochemical; settings: peptide up to 250 μM; (SEQ ID NO: 8) at 100 μM

PO4 incorp. (DNA-PK [1]; each peptide at 200 μM, calf thymus DNA 10 μg/ml, 30° C.): 0.6 pmol/min/μg of DNA-PK
Substance: Ala Leu Pro Asn Asn Thr Ser Ser Ser Pro Gln Pro Lys Lys Lys Pro Leu Asp Gly Glu Tyr (ALPNNTSSSPQPKKKPLDGEY; Human p53 residues 306-327; listed as Homo sapiens) [SEQ ID NO: 29]
substrate activity for DNA-PK (in words) (DNA-PK [1]): phosphorylated at a negligible rate; also recorded: not substrates for DNA-PK
inhibition of phosphorylation of (SEQ ID NO: 8) (DNA-PK [2]): None of these peptides significantly inhibited the phosphorylation
